pIC50: −log10 of the molar value. Read-outs that look alike come from different tables or passages of the source.
Assays:
[1] = biological target: T1, 11β-HSD1 (Homo sapiens, UniProt P28845); details: read-out: Biological Test Example 1 IC50; Examples
[2] = biological target: human recombinant cytochrome P450 2C19 (Homo sapiens, UniProt P33261); test: biochemical
[3] = biological target: CYP2C9 (Homo sapiens, UniProt P11712); test: biochemical
[4] = biological target: T1, 11β-HSD1; test: biochemical
[5] = biological target: human recombinant cytochrome P450 2C9 (Homo sapiens, UniProt P11712); test: biochemical

Protein sequences, listed by entry. Tags and fused reporters are not part of them. Lines headed by an entry give the natural chain unless they say otherwise; changes in a name come on top.
UniProt P28845: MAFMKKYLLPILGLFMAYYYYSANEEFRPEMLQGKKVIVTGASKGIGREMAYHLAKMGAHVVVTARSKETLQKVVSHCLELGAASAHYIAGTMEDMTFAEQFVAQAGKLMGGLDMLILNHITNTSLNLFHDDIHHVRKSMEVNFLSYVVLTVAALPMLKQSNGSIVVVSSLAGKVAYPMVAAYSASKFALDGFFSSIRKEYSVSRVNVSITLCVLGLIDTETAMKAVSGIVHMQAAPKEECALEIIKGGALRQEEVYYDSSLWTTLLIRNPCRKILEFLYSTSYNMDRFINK
UniProt P33261, whole entry: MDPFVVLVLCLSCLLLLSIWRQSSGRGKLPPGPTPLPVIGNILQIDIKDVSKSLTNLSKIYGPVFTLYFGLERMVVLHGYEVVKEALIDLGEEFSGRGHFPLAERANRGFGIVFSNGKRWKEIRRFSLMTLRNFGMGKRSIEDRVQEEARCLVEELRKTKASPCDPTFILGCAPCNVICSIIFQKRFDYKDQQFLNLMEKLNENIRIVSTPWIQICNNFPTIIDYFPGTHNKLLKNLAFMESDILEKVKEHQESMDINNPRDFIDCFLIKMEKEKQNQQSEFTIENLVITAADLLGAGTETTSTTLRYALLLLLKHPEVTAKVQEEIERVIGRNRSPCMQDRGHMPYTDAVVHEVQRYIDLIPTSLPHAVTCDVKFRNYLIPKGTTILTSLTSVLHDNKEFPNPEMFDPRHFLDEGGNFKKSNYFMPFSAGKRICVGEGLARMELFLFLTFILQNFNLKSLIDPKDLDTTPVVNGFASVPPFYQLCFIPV
UniProt P11712, whole entry: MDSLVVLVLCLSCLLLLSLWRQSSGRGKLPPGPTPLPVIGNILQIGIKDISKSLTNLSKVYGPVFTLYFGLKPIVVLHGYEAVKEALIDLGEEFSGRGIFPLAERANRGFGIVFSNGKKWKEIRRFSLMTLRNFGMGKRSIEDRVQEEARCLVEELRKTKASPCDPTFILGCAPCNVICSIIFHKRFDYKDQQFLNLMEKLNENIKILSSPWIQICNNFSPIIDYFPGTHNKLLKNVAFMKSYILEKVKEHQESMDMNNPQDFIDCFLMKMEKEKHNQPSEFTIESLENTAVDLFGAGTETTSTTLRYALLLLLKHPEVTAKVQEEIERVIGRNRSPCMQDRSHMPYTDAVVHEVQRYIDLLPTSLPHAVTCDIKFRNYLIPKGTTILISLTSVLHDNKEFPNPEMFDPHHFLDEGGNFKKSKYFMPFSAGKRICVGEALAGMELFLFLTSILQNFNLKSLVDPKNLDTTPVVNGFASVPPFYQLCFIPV

Q: With CC(C)C1(CCC(C)(C)O)CCN([C@@H](C)c2ccc(-c3ccn(C)c(=O)c3)cc2)C(=O)O1 (single isomer, unassigned; isomer 1) [84 Isomer 1] as the molecule, how does the pIC50 [1] read?
A: The pIC50 was < 7.00.

Q: With C[C@@H](c1ccc(-c2ccn(CCF)c(=O)c2)cc1)N1CC[C@](CC(C)(C)O)(c2ccccc2)OC1=O [Example 25, (S)-3-((S)-1-(4-(1-(2-fluoroethyl)-2-oxo-1,2-dihydropyridin-4-yl)phenyl)ethyl)-6-(2-hydroxy-2-methylpropyl)-6-phenyl-1,3-oxazinan-2-one] as the molecule, how does the pIC50 [2] read?
A: The pIC50 was 4.66.

Q: How did the pIC50 [3] turn out when CC(C)n1cc(-c2ccc([C@H](C)N3CC[C@](CC(C)(C)O)(c4ccccc4)OC3=O)cc2)ccc1=O [Example 59, (S)-6-(2-hydroxy-2-methylpropyl)-3-((S)-1-(4-(1-isopropyl-6-oxo-1,6-dihydropyridin-3-yl)phenyl)ethyl)-6-phenyl-1,3-oxazinan-2-one] was run?
A: The pIC50 was 4.75.

Q: CC(C)C1(CCC(C)(C)O)CCN([C@@H](C)c2ccc(-c3ccn(C)c(=O)c3)cc2)C(=O)O1 (single isomer, unassigned) was tested. Which pIC50 [4] did it give?
A: The pIC50 was < 7.00.

Q: With C[C@@H](c1ccc(-c2ccn(C(F)F)c(=O)c2)cc1)N1CC[C@](CC(C)(C)O)(c2ccccc2)OC1=O [Example 5] as the molecule, how does the pIC50 [2] read?
A: The pIC50 was 4.66.

Q: What about the pIC50 [5] of the same molecule?
A: The pIC50 was 4.43.

Q: With C[C@@H](c1ccc(-c2ccc(=O)n(C(F)F)c2)cc1)N1CC[C@](CC(C)(C)O)(c2ccccc2)OC1=O [Example 4, (S)-3-((S)-1-(4-(1-(difluoromethyl)-6-oxo-1,6-dihydropyridin-3-yl)phenyl)ethyl)-6-(2-hydroxy-2-methylpropyl)-6-phenyl-1,3-oxazinan-2-one] as the molecule, how does the pIC50 [2] read?
A: The pIC50 was 4.66.

Q: How did the pIC50 [3] turn out when C[C@@H](c1ccc(-c2ccc(=O)n(C)c2)cc1)N1CC[C@](CCCO)(c2ccccc2)OC1=O [Example 30, (R)-6-(3-hydroxypropyl)-3-((S)-1-(4-(1-methyl-6-oxo-1,6-dihydropyridin-3-yl)phenyl)ethyl)-6-phenyl-1,3-oxazinan-2-one] was run?
A: Its pIC50 is 4.84.
